Literature values as cited in paper PMC8955485, “Journey on VX-809-Based Hybrid Derivatives towards Drug-like F508del-CFTR Correctors: From Molecular Modeling to Chemical Synthesis and Biological Assays” (Pharmaceuticals, 2022).

The chains behind the UniProt entries cited, without tags or fusion partners. A line that says so, or that is headed by a name, gives the form on record, which may keep a tag or linker.
UniProt P13569, with tags, fused parts or gaps DEL508-508: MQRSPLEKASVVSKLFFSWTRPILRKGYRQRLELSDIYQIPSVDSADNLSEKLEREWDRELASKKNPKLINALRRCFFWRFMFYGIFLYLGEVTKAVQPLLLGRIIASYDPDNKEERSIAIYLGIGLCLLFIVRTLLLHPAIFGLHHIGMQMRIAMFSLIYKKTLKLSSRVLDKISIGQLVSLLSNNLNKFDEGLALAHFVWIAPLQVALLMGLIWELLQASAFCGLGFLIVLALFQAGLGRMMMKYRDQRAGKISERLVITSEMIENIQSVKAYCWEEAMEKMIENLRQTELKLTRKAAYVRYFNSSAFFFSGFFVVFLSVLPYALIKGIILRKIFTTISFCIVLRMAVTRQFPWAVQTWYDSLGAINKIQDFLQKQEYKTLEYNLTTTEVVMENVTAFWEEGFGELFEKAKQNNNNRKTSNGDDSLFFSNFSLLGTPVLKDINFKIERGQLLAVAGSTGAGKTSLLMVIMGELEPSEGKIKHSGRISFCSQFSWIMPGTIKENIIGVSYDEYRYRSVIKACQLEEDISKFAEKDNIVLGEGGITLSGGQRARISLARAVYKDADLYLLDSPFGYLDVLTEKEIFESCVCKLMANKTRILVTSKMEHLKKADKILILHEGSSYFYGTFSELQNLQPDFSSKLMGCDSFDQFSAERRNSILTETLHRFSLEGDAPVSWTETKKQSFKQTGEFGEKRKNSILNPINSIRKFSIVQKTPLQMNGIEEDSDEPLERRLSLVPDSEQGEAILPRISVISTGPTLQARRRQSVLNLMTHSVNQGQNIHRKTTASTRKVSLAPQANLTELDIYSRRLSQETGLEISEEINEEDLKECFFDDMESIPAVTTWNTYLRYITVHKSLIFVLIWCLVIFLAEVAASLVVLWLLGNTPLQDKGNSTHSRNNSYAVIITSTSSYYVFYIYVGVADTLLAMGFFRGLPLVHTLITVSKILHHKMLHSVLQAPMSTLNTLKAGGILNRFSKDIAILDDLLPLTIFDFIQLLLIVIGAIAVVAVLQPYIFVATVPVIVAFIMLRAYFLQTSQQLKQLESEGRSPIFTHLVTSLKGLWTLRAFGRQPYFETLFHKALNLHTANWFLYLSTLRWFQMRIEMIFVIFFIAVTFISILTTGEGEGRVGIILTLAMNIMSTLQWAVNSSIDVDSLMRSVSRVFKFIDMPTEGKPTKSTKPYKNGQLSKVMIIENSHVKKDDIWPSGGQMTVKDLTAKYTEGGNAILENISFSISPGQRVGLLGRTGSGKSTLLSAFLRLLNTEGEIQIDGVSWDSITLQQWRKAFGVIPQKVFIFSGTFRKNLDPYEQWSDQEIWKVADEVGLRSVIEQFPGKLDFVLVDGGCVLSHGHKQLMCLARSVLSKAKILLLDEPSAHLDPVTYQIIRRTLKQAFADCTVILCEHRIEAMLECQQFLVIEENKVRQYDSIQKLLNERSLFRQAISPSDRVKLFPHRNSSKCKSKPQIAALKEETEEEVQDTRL

Target: F508del-CFTR (Homo sapiens, UniProt P13569, DEL508-508)
Set-up: expressed in transfected cells
Conditions: first series of hybrids, cited from earlier work

O=C(Nc1nc(-c2cccc(Cl)c2)cs1)C1(c2ccc3c(c2)OC(F)(F)O3)CC1 [Compound 6e]
EC50: 4 µM
pEC50 (from EC50 of ref 27): 5.40 M
